# Test system: amylin receptor / calcitonin receptor
structure (smiles),measurement,value
CC(C)C[C@H](NC(=O)[C@H](CCCCN)NC(=O)CNC(=O)[C@H](CC(C)C)NC(=O)[C@@H](NC(=O)[C@@H]1CSSC[C@H](N)C(=O)N[C@@H](CO)C(=O)N[C@@H](CC(N)=O)C(=O)N[C@@H](CC(C)C)C(=O)N[C@@H](CO)C(=O)N[C@@H]([C@@H](C)O)C(=O)N1)C(C)C)C(=O)N[C@@H](CO)C(=O)N[C@@H](CCC(N)=O)C(=O)N[C@@H](CCC(=O)O)C(=O)N[C@@H](CC(C)C)C(=O)N[C@@H](Cc1c[nH]cn1)C(=O)N[C@@H](CCCCN)C(=O)N[C@@H](CC(C)C)C(=O)N[C@@H](CCC(N)=O)C(=O)N[C@H](C(=O)N[C@@H](Cc1ccc(O)cc1)C(=O)N1CCC[C@H]1C(=O)N[C@@H](CCCNC(=N)N)C(=O)N[C@H](C(=O)N[C@@H](CC(N)=O)C(=O)N[C@H](C(=O)NCC(=O)N[C@@H](CO)C(=O)NCC(=O)N[C@H](C(=O)N1CCC[C@H]1C(N)=O)[C@@H](C)O)[C@@H](C)O)[C@@H](C)O)[C@@H](C)O [salmon calcitonin],binding affinities to amylin receptors and calcitonin receptors,comparable binding affinities to amylin receptors and calcitonin receptors
